One substance from US8815577B2, “Assay electrode having immobilized lipid/protein layers, methods of making the same and methods of using the same for luminescence test measurements” (Meso Scale Technologies, LLC, priority 2001, dated 2014) can be followed below.

Sequences of proteins named here, by UniProt entry; tags and fusion partners are left off. A change or cut given only in a name is not applied to a line headed by its entry.
UniProt P33032: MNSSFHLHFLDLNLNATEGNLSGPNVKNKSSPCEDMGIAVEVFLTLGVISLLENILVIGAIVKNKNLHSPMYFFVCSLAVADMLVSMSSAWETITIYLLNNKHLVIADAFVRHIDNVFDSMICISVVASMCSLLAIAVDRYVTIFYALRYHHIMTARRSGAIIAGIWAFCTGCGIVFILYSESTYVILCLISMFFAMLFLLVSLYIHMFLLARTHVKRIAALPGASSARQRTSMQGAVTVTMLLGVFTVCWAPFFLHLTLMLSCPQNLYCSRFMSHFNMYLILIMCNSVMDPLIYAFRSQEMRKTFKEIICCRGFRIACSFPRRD

The assay deals with melanocortin 5 receptor (MC5) (Homo sapiens, UniProt P33032). As to conditions: read-out: binding constant (EC50) for competition with NDP-α-MSH-TAG; 120 nM NDP-α-MSH-TAG; MC5 membranes captured on Pokeweed Mitogen.

The term EC50 denotes the concentration at which the effect is half-maximal.

For the substance “[Nle4,D-Phe7]-α-melanocyte-stimulating hormone [NDP-α-MSH]”, the EC50 came out at 3.2 nM.
